31 compounds from patent US5773423A (priority 1994, dated 1998) can be followed below.

Like-named read-outs stand apart in the source and are kept apart here.

The assay addresses T1, rat A3 receptor (Rattus norvegicus, UniProt P28647).
T1 sequence (P28647 1-320): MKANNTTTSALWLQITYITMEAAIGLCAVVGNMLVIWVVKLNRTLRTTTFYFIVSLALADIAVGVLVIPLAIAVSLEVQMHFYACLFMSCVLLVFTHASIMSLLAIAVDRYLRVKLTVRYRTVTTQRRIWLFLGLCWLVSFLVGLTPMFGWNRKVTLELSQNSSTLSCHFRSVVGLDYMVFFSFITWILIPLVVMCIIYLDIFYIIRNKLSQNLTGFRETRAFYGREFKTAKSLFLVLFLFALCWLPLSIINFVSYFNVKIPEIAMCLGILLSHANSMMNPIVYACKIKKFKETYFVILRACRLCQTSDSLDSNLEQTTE
Put plainly: biochemical. It is filed as binding. Conditions: for inhibition at 100 µM: read-out: A3 percent displacement.

The mark [1] stands for this setting: CHO cells stably transfected with rat A3 cDNA, [125I]APNEA or [125I]AB-MECA, read-out: A3 affinity Ki.

For `CNC(=O)[C@H]1O[C@@H](n2cnc3c(NCc4cccc(Br)c4)ncnc32)[C@H](O)[C@@H]1O` [Compound 41, N^6-(3-bromobenzyl)-NMCA], the inhibition constant Ki (usually the dissociation constant of the complex between target and ligand, obtained from inhibition or displacement) under setting [1] amounted to 0.001 ± 0.0003 µM.
`CCCCCCn1c(=O)c2c(ncn2[C@@H]2O[C@H](C(=O)NC)[C@@H](O)[C@H]2O)n(CCCCCC)c1=O` [Example 69, N-methyl 1,3-di-n-hexylxanthine-7-β-D-ribofuronamide]: for the setting “Table 4, ratio of Ki”, the A1/A3 is recorded as 3.0 and the A2/A3 is more than 10.
Take `Nc1nc2ccc(Cl)cc2n2c(-c3ccccc3)nnc12` [Compound 92, 4-amino-8-chloro-1-phenyl[1,2,4]-triazolo [4,3-a]quinoxaline]: the inhibition at 100 µM worked out at 29.7 ± 7.8%. Under “read-out: Ki at A3 receptors”, the Ki was not below 100 µM.
Consider `Cn1c(=O)[nH]c2nc[nH]c2c1=O` [Compound 99, 1-methylX], for which the inhibition at 100 µM amounted to 11.1 ± 1.6%.
For `CNC(=O)[C@H]1O[C@@H](n2cnc3c(NCc4cccc(NC(C)=O)c4)ncnc32)[C@H](O)[C@@H]1O` [Compound 45, N^6-(3-acetamidobenzyl)-NMCA], the “selectivity for A3 over A1 receptors” value is 110 fold and the “selectivity for A3 over A2 (A2a) receptors” value is reported as more than 500 fold. Moreover, the inhibition constant (Ki) under setting [1] turned out to be 0.065 ± 0.015 µM.
`NC(=O)[C@H]1O[C@@H](n2cnc3c(NCc4ccccc4)ncnc32)[C@H](O)[C@@H]1O` [Compound 39, N^6-benzyl-5'-carboxamidoadenosine]: under setting [1], the Ki came out at 0.246 ± 0.035 µM.
For the compound `Nc1ccn([C@@H]2O[C@H](CO)[C@@H](O)[C@H]2O)c(=O)n1` [Compound 84, cytidine, reference compound], the inhibition at 100 µM amounted to 24.5 ± 10.2%.
Turning to `CCCCn1c(=O)c2c(ncn2[C@@H]2O[C@H](C(=O)OC)[C@@H](O)[C@H]2O)n(CCCC)c1=O` [Compound 122, methyl 1,3-di-n-butylxanthine-7-β-D-ribofuronate], the inhibition constant (Ki) is, setting by setting: under setting [1], 3.23 µM; (Table 4, [125I]AB-MECA, CHO/rat A3, read-out: Ki (A3)) 3.23 ± 0.59 µM. The compound also came in with an A2/A3 (rat) of more than 1.
`Cn1c(=O)c2c(ncn2CCO)n(C)c1=O` [Compound 116, 7-β-hydroxyethylT, reference compound]: the inhibition at 100 µM was found to be 21.1 ± 13.3%.
For the compound `Nc1ncnc2c1ncn2[C@@H]1O[C@H](CO)[C@@H](O)[C@@H]1O` [Compound 79, adenine-β-D-arabinofuranoside], the “displacement of radioligand from A3 (in words)” value is recorded as “low affinity compound” and the inhibition at 100 µM stood at 23.7 ± 3.8%.
Regarding `Nc1ccc(CCNc2ncnc3c2ncn3[C@@H]2O[C@H](CO)[C@@H](O)[C@H]2O)cc1[125I]` [[^125 I]APNEA, [^125 I]N^6-2-(4-aminophenyl)ethyladenosine], for the setting “Table 2, ratio of Ki”, the A1/A3 was 0.14.
On to `CCNC(=O)[C@H]1O[C@@H](n2cnc3c(NCc4ccccc4OC)ncnc32)[C@H](O)[C@@H]1O` [Compound 65, N^6-(2-methoxybenzyl)-NECA], for which the inhibition constant (Ki) under setting [1] stood at 0.0071 ± 0.0003 µM.
On to `CCCCn1c(=O)c2c(ncn2[C@@H]2O[C@H](CO)[C@@H](O)[C@H]2O)n(CCCC)c1=S` [Example 62, 1,3-di-n-butyl-2-thio-xanthine-7-β-D-ribofuranoside], for which the “potency increase at A3 vs 1,3-di-n-butylxanthine-7-β-D-ribofuranoside (2-thio vs 2-oxo)” value was 4 fold. Besides, under “Table 4, ratio of Ki”, the A1/A3 is on record as 1.6 and the A2/A3 is given as 3.0.
For `O=S(=O)(O)c1ccc(CCCCNc2ncnc3c2ncn3[C@@H]2O[C@H](CO)[C@@H](O)[C@H]2O)cc1` [Compound 14, N^6-4-(p-sulfophenyl)butyl adenosine], the Ki under setting [1] amounted to 0.808 ± 0.116 µM.
With `OC[C@H]1O[C@@H](n2cnc3c(NC4CCCC4)cc(Cl)nc32)[C@H](O)[C@@H]1O` [Compound 15, 1-deaza-2-chloro-N^6-cyclopentyladenosine], the “potency relative to 2-chloro-CPA at A3 (in words)” value is on record as “three-fold less potent”. Further, under setting [1], the inhibition constant Ki stood at 0.77 ± 0.234 µM.
Regarding `NCCNC(=O)Cc1ccc(NC(=O)Cc2ccc(Nc3ncnc4c3ncn4[C@@H]3O[C@H](CO)[C@@H](O)[C@H]3O)cc2)cc1` [Compound 1, N^6-[4-[[[4-[[[(2-aminoethyl)amino]carbonyl]methyl]anilino]carbonyl]methyl]phenyl]adenosine], under “read-out: A3 affinity Ki”, the Ki came to 0.281 ± 0.051 µM.
Consider `CCNC(=O)[C@H]1O[C@@H](n2cnc3c(NCc4ccccc4[N+](=O)[O-])ncnc32)[C@H](O)[C@@H]1O` [Compound 61, N^6-(2-nitrobenzyl)adenosine-5'-N-ethyluronamide], for which the Ki under setting [1] stood at 0.0028 ± 0.0005 µM.
As to `CCCCCn1c(=O)c2c(ncn2[C@@H]2O[C@H](C(=O)NC)[C@@H](O)[C@H]2O)n(CCCCC)c1=O` [Example 68, N-methyl 1,3-di-n-pentylxanthine-7-β-D-ribofuronamide], the A1/A3 is 4.3 and the A2/A3 is on record as more than 1.
`Nc1ncnc2c1nc(Br)n2[C@@H]1O[C@H](CO)[C@@H](O)[C@H]1O` [Compound 31, 8-bromoadenosine, reference compound]: the inhibition at 100 µM was determined as 31.3 ± 6%. Under “read-out: IC50 at A3 receptors”, the IC50 (as a rule, the concentration at which inhibition is half-maximal) was more than 100 µM.
On to `CCNC(=O)[C@H]1O[C@@H](n2cnc3c(NCc4cccc(OC)c4)ncnc32)[C@H](O)[C@@H]1O` [Compound 66, N^6-(3-methoxybenzyl)-NECA], for which the inhibition constant Ki under setting [1] came to 0.0043 ± 0.0006 µM.
For `CCNC(=O)[C@H]1O[C@@H](n2cnc3c(N(C)C)ncnc32)[C@H](O)[C@@H]1O` [Compound 29, N^6 -dimethylNECA], the “fold more potent than N6-dimethyladenosine at A3 receptors” value is on record as 14 fold, the “selectivity for A3 over A1 receptors” value is listed as 4 fold and the “selectivity for A3 over A2 (A2a) receptors” value is recorded as 6 fold. The Ki under setting [1] was 2.26 µM.
Turning to `CNC(=O)[C@H]1O[C@@H](n2cnc3c(NCc4ccc(N)cc4)ncnc32)[C@H](O)[C@@H]1O` [Compound 50, N^6-(4-aminobenzyl)-NMCA], under setting [1], the Ki is 0.014 ± 0.003 µM.
For `CCNC(=O)[C@H]1O[C@@H](n2cnc3c(NC4CCCCC4)ncnc32)[C@H](O)[C@@H]1O` [Compound 27, N^6 -cyclohexylNECA], the “fold more potent than CHA at A3 receptors” value was determined as 10 fold and the “fold more potent than NECA at A3 receptors” value is 7 fold. The same compound gave a Ki (A3 affinity Ki) of 0.016 ± 0.0054 µM.
Take `OC[C@H]1O[C@@H](n2cnc3c(NC4CCCCC4)ncnc32)[C@H](O)[C@@H]1O` [Compound 5, N^6 -cyclohexyladenosine]: under setting [1], the Ki came out at 0.167 ± 0.026 µM.
Regarding `Nc1nc(SCc2ccc([N+](=O)[O-])cc2)c2ncn([C@@H]3O[C@H](CO)[C@@H](O)[C@H]3O)c2n1` [Compound 87, (4-nitrobenzyl)-6-thioguanosine, reference compound], the inhibition constant (Ki) under setting [1] stood at 40.7 µM and the Ki (read-out: Ki at A3 receptors) is 41 µM.
As to `CC(C)Cn1c(=O)n(C)c(=O)c2[nH]cnc21` [Compound 108, 3-isobutyl-1-methylxanthine], for the setting “at 100 μM”, the inhibition at 100 µM came out at 30.1 ± 12.4%.
Take `CCCCC#Cc1nc(N)c2ncn([C@@H]3O[C@H](C(=O)NCC)[C@@H](O)[C@H]3O)c2n1` [drawing 13 (1st)]: the Ki under setting [1] worked out at 0.0256 ± 0.0032 µM.
`CCNC(=O)[C@H]1O[C@@H](n2cnc3c(NCc4cccc(I)c4)ncnc32)[C@H](O)[C@@H]1O` [Compound 60, N^6-(3-iodobenzyl)-NECA]: the Ki under setting [1] was found to be 0.00088 ± 0.00021 µM.
With `O=S(=O)(O)c1ccc(Nc2ncnc3c2ncn3[C@@H]2O[C@H](CO)[C@@H](O)[C@H]2O)cc1` [Compound 12, N^6 -p-sulfophenyladenosine], the Ki under setting [1] came to 0.526 ± 0.142 µM.
Consider `Cn1c(=O)[nH]c2c(ncn2C)c1=O` [Compound 105, 1,9-dimethylX, reference compound], for which the inhibition at 100 µM was found to be 17 ± 7.9%.
With `CCCCCCn1c(=O)c2c(ncn2[C@@H]2O[C@H](CO)[C@@H](O)[C@H]2O)n(CCCCCC)c1=O` [Example 64, 1,3-di-n-hexylxanthine-7-β-D-ribofuranoside], the A1/A3 came out at 0.23.
